Test system: plasma GL-1, GL-3, and GM3 concentrations
Assay: Phase 1 Study 2: pharmacodynamic endpoints (plasma GL-1, GL-3, GM3)
Assay type: in vivo, human
Settings: Day 15, plasma
Protocol: Study 2 was a single-center, double-blind, randomized, placebo-controlled, sequential ascending repeated-dose study of the safety, tolerability, PK, and pharmacodynamics of Compound 2 in healthy adult male and female volunteers.
The study enrolled and randomized 36 healthy adults (19 men and 17 women) (n=9 each to group). The subjects were randomized to receive once-daily doses of Compound 2 at 5, 10, or 20 mg (provided as 5-mg capsules of the L-malic salt form) or placebo for 14 days after at least a 10-hour fast.
Blood was sampled for plasma concentrations of Compound 2 as follows: Day 1 at 0, 0.5, 1, 2, 3, 4, 5, 6, 8, 10, 12, and 16 hours post-dose; On Days 2-5, 8, 11, and 13, at 0 h; On Day 14, at 0.5, 1, 2, 3, 4, 5, 6, 8, 10, 12 hours post-dose; On Days 15-17, at 24, 48, and 72 hours, respectively, after the Day 14 dose. Urine samples were collected for analysis of Compound 2 concentrations on Day 1 (0 hour post-dose) and continuously on Day 14 from 0-24 hours post-dose. Pharmacodynamic endpoints (plasma GL-1, GL-3, and GM3 concentrations) were assessed on Days 1-5, 8, 11, 13, and 14, at 0 hours […]; and on Day 15, at 24 hours after the Day 14 dose.

CC(C)(NC(=O)O[C@@H]1CN2CCC1CC2)c1csc(-c2ccc(F)cc2)n1 [Compound 2, (S)-quinuclidin-3-yl 2-(2-(4-fluorophenyl)thiazol-4-yl)propan-2-ylcarbamate]
GL-1 treatment ratio, point estimate (5 mg vs placebo): 0.39 | GL-3 treatment ratio, point estimate (5 mg vs placebo): 0.61 | GM3 treatment ratio, point estimate (5 mg vs placebo): 0.56 | GL-1 treatment ratio, point estimate (10 mg vs placebo): 0.32 | GL-3 treatment ratio, point estimate (10 mg vs placebo): 0.69 | GM3 treatment ratio, point estimate (10 mg vs placebo): 0.49 | GL-1 treatment ratio, point estimate (20 mg vs placebo): 0.23 | GL-3 treatment ratio, point estimate (20 mg vs placebo): 0.67 | GM3 treatment ratio, point estimate (20 mg vs placebo): 0.40
